# Data as given in BindingDB's records for doi:10.1016/j.chembiol.2011.12.010 (Boston College, 2012).
# By UniProt entry, the sequences of proteins in these tests, tags left out. Where a name states a change or a piece, a line headed by the entry shows the natural chain unless it says otherwise.
# UniProt O60658: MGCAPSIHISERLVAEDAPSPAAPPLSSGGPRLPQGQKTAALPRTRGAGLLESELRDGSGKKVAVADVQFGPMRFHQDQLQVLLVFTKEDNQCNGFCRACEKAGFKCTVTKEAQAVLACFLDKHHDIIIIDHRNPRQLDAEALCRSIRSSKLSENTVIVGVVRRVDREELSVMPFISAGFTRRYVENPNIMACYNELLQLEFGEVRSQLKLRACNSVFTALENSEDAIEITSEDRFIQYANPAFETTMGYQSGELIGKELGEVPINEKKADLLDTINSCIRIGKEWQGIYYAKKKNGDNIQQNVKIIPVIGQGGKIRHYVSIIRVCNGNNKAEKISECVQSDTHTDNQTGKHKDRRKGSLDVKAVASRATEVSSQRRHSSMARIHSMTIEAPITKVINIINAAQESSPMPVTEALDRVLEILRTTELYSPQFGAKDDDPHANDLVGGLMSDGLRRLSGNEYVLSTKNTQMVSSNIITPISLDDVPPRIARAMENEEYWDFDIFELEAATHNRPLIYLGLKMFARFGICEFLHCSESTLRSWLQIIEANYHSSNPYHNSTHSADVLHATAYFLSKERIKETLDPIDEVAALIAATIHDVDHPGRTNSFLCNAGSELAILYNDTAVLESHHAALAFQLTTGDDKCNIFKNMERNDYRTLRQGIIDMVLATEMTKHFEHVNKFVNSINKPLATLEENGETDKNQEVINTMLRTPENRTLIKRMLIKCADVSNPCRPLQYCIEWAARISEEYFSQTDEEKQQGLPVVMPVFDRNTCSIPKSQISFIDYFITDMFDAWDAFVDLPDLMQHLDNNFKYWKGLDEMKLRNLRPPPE
# UniProt Q13946: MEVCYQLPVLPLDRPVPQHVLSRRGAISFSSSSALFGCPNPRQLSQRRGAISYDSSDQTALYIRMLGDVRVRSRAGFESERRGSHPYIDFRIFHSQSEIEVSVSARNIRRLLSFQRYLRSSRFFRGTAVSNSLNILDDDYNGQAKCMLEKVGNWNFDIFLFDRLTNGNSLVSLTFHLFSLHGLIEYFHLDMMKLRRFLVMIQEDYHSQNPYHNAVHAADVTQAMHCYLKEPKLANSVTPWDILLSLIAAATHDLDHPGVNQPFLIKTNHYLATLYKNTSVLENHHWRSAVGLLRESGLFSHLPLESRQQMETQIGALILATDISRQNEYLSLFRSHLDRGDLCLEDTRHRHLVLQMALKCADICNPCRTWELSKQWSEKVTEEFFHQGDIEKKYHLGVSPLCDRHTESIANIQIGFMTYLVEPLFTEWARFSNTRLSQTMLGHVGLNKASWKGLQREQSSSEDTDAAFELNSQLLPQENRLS
# UniProt Q9HCR9: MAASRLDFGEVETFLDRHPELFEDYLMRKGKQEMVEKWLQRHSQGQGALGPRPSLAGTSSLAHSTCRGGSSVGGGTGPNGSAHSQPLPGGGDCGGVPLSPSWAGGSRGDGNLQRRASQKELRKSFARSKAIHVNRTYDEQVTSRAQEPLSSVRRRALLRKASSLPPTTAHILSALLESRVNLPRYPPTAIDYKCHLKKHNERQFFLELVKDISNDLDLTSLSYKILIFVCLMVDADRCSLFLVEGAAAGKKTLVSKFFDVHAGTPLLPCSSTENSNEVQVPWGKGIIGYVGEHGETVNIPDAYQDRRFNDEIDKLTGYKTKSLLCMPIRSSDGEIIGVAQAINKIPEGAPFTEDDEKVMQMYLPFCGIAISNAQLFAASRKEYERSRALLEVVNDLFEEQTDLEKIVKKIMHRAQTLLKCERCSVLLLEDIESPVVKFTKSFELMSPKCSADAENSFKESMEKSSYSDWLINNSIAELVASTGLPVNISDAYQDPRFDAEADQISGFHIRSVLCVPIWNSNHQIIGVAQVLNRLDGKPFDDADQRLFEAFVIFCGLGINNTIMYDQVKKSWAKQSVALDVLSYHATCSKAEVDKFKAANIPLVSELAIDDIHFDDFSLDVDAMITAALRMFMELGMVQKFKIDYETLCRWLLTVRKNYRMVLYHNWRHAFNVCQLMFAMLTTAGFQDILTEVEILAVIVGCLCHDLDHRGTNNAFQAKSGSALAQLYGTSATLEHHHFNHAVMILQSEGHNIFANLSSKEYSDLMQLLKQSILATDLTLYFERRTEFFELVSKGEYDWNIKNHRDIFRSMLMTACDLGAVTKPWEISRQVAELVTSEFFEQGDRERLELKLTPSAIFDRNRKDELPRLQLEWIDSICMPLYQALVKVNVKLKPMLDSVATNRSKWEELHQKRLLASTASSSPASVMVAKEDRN
# UniProt Q9Y233: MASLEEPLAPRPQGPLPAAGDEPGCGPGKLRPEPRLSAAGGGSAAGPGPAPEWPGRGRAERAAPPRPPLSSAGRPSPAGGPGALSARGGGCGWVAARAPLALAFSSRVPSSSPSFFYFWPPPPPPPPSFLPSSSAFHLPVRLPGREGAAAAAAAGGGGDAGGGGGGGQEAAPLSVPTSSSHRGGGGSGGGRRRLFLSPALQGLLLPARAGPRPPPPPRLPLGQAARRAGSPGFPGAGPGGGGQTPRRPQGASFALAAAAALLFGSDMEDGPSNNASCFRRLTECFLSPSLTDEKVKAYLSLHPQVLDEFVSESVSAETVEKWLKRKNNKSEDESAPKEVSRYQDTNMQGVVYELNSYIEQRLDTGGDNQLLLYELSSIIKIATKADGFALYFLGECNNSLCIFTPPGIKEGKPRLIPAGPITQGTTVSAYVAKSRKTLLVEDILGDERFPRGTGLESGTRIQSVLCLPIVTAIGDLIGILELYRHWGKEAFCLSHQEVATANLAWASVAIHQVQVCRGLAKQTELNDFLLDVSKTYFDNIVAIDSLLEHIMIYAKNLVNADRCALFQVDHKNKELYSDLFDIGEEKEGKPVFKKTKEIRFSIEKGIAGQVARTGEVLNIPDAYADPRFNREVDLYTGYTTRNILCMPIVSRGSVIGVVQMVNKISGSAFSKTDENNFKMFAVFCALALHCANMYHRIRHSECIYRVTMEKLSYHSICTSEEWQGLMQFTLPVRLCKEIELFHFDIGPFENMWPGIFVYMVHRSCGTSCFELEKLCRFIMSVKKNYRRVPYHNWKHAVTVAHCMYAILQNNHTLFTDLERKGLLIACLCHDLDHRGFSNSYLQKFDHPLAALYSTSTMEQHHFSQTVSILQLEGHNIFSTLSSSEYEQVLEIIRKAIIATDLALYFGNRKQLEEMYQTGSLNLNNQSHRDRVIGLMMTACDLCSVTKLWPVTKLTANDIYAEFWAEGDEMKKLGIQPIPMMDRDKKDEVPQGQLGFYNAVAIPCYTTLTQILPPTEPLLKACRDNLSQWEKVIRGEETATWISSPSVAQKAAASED
# Assays:
# Test in all cases: In Vitro Enzyme Assay
# [1] = biological target: cGMP-specific 3',5'-cyclic phosphodiesterase (Homo sapiens, UniProt O76074)
# [2] = biological target: High affinity cAMP-specific and IBMX-insensitive 3',5'-cyclic phosphodiesterase 8A (Homo sapiens, UniProt O60658)
# [3] = biological target: High affinity cAMP-specific 3',5'-cyclic phosphodiesterase 7A (Homo sapiens, UniProt Q13946)
# [4] = biological target: Dual 3',5'-cyclic-AMP and -GMP phosphodiesterase 11A (Homo sapiens, UniProt Q9HCR9)
# [5] = biological target: cAMP and cAMP-inhibited cGMP 3',5'-cyclic phosphodiesterase 10A (Homo sapiens, UniProt Q9Y233)
Structure (SMILES),IC50 [1] [µM],IC50 [3] [µM],other results
O=c1nc2sc3ccccc3n2c(=O)n1-c1ccccc1,> 100,–,IC50 [2]: > 100 µM
Cc1ccccc1Nc1ncnc2c1c(-c1ccccc1)cn2-c1ccc(F)cc1,–,> 100,–
CCCCSc1nc2c(c(=O)n1-c1ccccc1)SCC2 [BC11-38-1],> 100,> 100,IC50 [4]: 0.4 µM
CCC(C)Sc1nc2c(c(=O)n1-c1ccccc1)SCC2 (configuration not stated) [BC11-38-2],–,–,IC50 [5]: 5 µM; IC50 [4]: 2.5 µM
CCCSc1nc2c(c(=O)n1-c1ccc(C)cc1)SCC2 [BC11-38-3],> 100,–,–
CCCSc1nc2c(c(=O)n1-c1ccccc1OC)SCC2 [BC11-38-4],–,> 100,–
CCCSc1nc2c(c(=O)n1-c1ccccc1)SCC2 [BC11-38],> 100,–,IC50 [2]: > 100 µM
